ChEMBL document CHEMBL6103538, “Carbonic anhydrases: Moiety appended derivatives, medicinal and pharmacological implications” (Bioorg Med Chem, 2024)

Assays:
Homo sapiens [1] = species: Homo sapiens; assay: Selectivity ratio of IC50 for human CA IX to IC50 for human CA II
Homo sapiens [2] = species: Homo sapiens; assay: Selectivity ratio of IC50 for human CA I to IC50 for human CA II

SMILES | Ratio IC50 (Homo sapiens [1]) | Ratio IC50 (Homo sapiens [2])
COc1ccc(C2C(C#N)=C(N)Oc3c2c(C)nn3-c2ccc(S(N)(=O)=O)cc2)cc1O (centres undefined) | 3.33 | 10.6
Cc1nn(-c2ccc(S(N)(=O)=O)cc2)c2c1C(c1ccc(F)cc1F)C(C#N)=C(N)O2 (centres undefined) | 4.52 | 4.68
